Test [1] has as its target T1, human P2X7 (Homo sapiens (Human), UniProt Q99572). Put plainly: Ca2+ flux (FLIPR) in 1321N1 cells expressing recombinant human P2X7.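 Further: cells loaded with Calcium-4 dye, preincubated with test compound for 30 min, fluorescence change read 180 s after agonist addition.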 The format is cell-based. (A change in cytosolic calcium serves as a functional read-out for many receptors and channels.)
For test [2], the target named is T2, rat P2X7 (Rattus norvegicus (Rat), UniProt Q64663). In words: Ca2+ flux (FLIPR) in 1321N1 cells expressing recombinant rat P2X7.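 Further: Calcium-4 dye fluorescence change read 180 s after agonist addition, with cells preincubated 30 min with compound and dye in 96-well plates.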 The format is cell-based.
The target in test [3] is T1, human P2X7. Put plainly: Radioligand binding ([3H]A-804598), human P2X7-1321N1 cell membranes.
Test [4] concerns the target T2, rat P2X7. Put plainly: Radioligand binding ([3H]A-804598), rat P2X7-1321N1 cell membranes. As to conditions: rat P2X7-1321N1 membranes, tritiated A-804598.
The mark [5] stands for this setting: human P2X7-1321N1 membranes, tritiated A-804598.

Chains of the proteins cited; added tags and fusions are not shown. Lines headed by an entry give the natural chain unless they say otherwise; changes in a name come on top.
UniProt Q99572: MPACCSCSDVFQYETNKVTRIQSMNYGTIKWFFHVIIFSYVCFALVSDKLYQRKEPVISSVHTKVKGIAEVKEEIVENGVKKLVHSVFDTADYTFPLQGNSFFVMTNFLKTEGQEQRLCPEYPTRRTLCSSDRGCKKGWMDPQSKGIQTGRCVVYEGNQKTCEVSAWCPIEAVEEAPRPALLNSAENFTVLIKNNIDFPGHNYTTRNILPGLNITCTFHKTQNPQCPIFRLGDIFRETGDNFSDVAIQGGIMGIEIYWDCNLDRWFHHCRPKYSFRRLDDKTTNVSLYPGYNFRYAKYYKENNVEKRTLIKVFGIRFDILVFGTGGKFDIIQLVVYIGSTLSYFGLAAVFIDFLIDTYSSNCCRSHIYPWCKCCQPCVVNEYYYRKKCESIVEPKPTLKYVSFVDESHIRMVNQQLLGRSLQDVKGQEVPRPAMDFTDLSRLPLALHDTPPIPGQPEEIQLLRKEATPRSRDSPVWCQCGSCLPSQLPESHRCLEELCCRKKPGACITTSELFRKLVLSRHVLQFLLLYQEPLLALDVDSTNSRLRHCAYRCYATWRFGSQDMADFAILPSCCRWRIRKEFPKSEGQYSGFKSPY
UniProt Q64663: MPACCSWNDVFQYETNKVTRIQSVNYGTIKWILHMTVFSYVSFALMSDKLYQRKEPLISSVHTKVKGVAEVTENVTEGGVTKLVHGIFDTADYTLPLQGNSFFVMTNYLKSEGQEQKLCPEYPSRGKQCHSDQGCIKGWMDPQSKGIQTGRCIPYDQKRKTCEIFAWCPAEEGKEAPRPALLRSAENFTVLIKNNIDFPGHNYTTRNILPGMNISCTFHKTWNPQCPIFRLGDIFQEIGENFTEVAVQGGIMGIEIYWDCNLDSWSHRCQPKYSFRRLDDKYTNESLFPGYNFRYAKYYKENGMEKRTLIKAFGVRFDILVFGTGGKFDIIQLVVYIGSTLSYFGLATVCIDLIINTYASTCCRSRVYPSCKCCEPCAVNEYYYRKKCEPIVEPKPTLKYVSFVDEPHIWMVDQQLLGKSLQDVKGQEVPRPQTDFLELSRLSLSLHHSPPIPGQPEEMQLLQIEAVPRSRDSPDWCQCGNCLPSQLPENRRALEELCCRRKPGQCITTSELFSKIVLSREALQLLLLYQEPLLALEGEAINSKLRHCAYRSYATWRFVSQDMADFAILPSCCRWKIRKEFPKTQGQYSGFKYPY

We go through two compounds from patent US10112937B2, “P2X7 modulators and methods of use” (Janssen Pharmaceutica NV, priority 2013, dated 2018).

For orientation: IC50 means the concentration that inhibits the measured activity by half. For orientation: Ki means the dissociation constant of the complex between target and ligand, obtained from inhibition or displacement. A higher Ki goes with lower affinity. As for `Cn1nc(-c2ccccc2)c2c1CN(C(=O)c1cccc(Cl)c1Cl)CC2.Cn1nc2c(c1-c1ccccc1)CCN(C(=O)c1cccc(Cl)c1Cl)C2` [Example 101, 6-[(2,3-Dichlorophenyl)carbonyl]-1-methyl-3-phenyl-4,5,6,7-tetrahydro-1H-pyrazolo[3,4-c]pyridine-6-[(2,3-dichlorophenyl)carbonyl]-2-methyl-3-phenyl-4,5,6,7-tetrahydro-2H-pyrazolo[3,4-c]pyridine (1:1)], the IC50 on human P2X7 [1] (250 μM BzATP, Calcium-4 dye) is 128 nM; at human P2X7 [1] (1321N1 cells, recombinant human P2X7, 250 μM BzATP) it was 128 nM; on rat P2X7 [2] (250 μM BzATP, Calcium-4 dye) it was 3460 nM; on rat P2X7 [2] (1321N1 cells, recombinant rat P2X7, 250 μM BzATP), 3460 nM. Further, the Ki is 85.1 nM at human P2X7 [3] (setting [5]) and 85.1 nM on human P2X7 [3] (tracer tritiated A-804598, 1 hour at 4° C.).
As for `C[C@H]1c2nnn(-c3ncc(F)cn3)c2CCN1C(=O)c1cccc(C(F)(F)F)c1F` (single isomer, unassigned) [Example 178, (S*)-(2-fluoro-3-(trifluoromethyl)phenyl)(1-(5-fluoropyrimidin-2-yl)-4-methyl-6,7-dihydro-1H-[1,2,3]triazolo[4,5-c]pyridin-5(4H)-yl)methanone], the Ki on rat P2X7 [4] worked out at 11.5 nM; at human P2X7 [3] (setting [5]), 3.5 nM.
